# Source: patent publication US8933107B2, “Pesticide thiazolyloxy substituted phenylamidine derivatives” (Bayer Cropscience AG, priority 2005, dated 2015)
# Tests used:
# Heliotis virescens = Heliotis virescens test (HELIVI spray application); type: in vivo; conditions: soybean leaf sections, concentration and time not stated
# Myzus persicae = Myzus persicae test (MYZUPE spray application); conditions: Chinese cabbage leaf-disks, concentration and time not stated
substance,measurement,setting,value
"4-[(4,5-dichloro-1,3-thiazol-2-yl)oxy]-2,5-dimethyl-N-[piperidin-2-lidene]aniline",activity (mortality of eggs),Heliotis virescens,good activity
same,log p (HCOOH),"Table 1, HPLC C 18, 40° C., 0.1% aqueous formic acid and acetonitrile",1.97
same,log P (pH 2.3),"pH 2.3, preparation examples",1.97
same,activity (mortality of aphids),Myzus persicae,good activity
